Assays:
[1] = molecular target: human tissue kallikrein (human) (UniProt P06870); experiment: enzyme inhibition kinetics, tissue kallikrein 0.35 nM, PFR-AMC substrate
[2] = molecular target: bovine pancreatic kallikrein (bovine); experiment: enzyme inhibition kinetics, kallikrein 92.0 pM
[3] = molecular target: bovine trypsin (type III) (bovine) (UniProt P00760); experiment: enzyme inhibition kinetics, trypsin 48.5 pM, GPK-AMC substrate
[4] = molecular target: bovine pancreatic kallikrein (bovine); experiment: enzyme inhibition kinetics, kallikrein 92.0 pM, PFR-AMC substrate
[5] = molecular target: bovine pancreatic kallikrein (bovine); experiment: enzyme inhibition kinetics, kallikrein 100 pM
[6] = molecular target: bovine trypsin (type III) (bovine) (UniProt P00760); experiment: enzyme inhibition kinetics, trypsin 48.5 pM
[7] = molecular target: bovine trypsin (type III) (bovine) (UniProt P00760); experiment: enzyme inhibition kinetics, trypsin 50 pM
[8] = molecular target: human tissue kallikrein (human) (UniProt P06870); experiment: enzyme inhibition kinetics, tissue kallikrein, PFR-AMC substrate
human factor Xa (human) = human factor Xa (human) (UniProt P00742); experiment: enzyme inhibition, factor Xa 0.87 nM, aprotinin 31 µM
human plasmin (human) = human plasmin (human) (UniProt P00747); experiment: enzyme inhibition kinetics, plasmin 50 pM

| Substance | Ki [1] [nM] | Ki [2] [nM] | Ki [3] [nM] | Ki [4] [nM] | Ki [5] [nM] | Ki [6] [nM] | Ki [7] [nM] | Ki [8] [nM] | % Inhibition at 31 µM (human factor Xa (human)) [%] | Ki (human plasmin (human)) [nM] |
| --- | --- | --- | --- | --- | --- | --- | --- | --- | --- | --- |
| Recombinant aprotinin (Trasylol) (from UniProt P00974 36-93) | 0.004 | 0.02 | 0.8 | 0.02 | 0.02 | 0.8 | 0.8 | 0.004 | – | – |
| Recombinant aprotinin (Trasylol) (from UniProt P00974 36-93) (other; other documents disagree on this pair) | – | – | – | – | – | – | – | – | 5 | 13 |

Source: patent EP1752538A1
